For the experiment, the target named is 5HT2C receptor (Homo sapiens, UniProt P28335). As to the kind of experiment: NIMH-PDSP radioligand binding, 5HT2C.

By UniProt entry, the sequences of proteins in these tests, tags left out. Residues count along the entry.
UniProt P28335, 33-458: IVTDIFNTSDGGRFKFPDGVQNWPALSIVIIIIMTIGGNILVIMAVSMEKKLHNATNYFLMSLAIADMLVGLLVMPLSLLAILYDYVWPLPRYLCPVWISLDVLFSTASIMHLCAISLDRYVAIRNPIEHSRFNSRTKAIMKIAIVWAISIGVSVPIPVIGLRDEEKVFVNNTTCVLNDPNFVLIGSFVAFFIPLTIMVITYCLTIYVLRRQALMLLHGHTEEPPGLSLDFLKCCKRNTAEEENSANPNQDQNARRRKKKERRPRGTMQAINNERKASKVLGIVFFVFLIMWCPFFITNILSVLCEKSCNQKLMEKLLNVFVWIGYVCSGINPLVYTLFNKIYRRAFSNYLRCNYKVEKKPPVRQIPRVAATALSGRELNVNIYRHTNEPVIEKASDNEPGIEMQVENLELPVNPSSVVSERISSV

The Ki is the dissociation constant of the complex between target and ligand, obtained from inhibition or displacement. Higher therefore signals a looser hold on the target.

For the compound `OC1(c2ccc(Cl)cc2)CCN(CCCSc2ccc(F)cc2)CC1` [Compound 6, 4-(4-chlorophenyl)-1-(3-((4-fluorophenyl)thio)propyl)piperidin-4-ol], the Ki is greater than 10 µM.

The values are drawn from article PMC3267002 (Bioorganic & medicinal chemistry, 2011).
